Legend:
Conditions in all cases: read-out: Selectivity Index
[1] = Selectivity index, ratio of GI50 for human THP1 cells to MIC90 for Mycobacterium tuberculosis H37Ra ATCC 25177 dormant stage; format: toxicity, cell-based, THP-1
How it was run: (§1)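 Cytotoxicity was measured on human MCF-7, HCT116 and THP-1 cells by MTT assay, with paclitaxel as reference. GI50 is the concentration inhibiting 50% of cell growth. The selectivity index is GI50 for the given cell line divided by MIC90 for the given mycobacterial strain and stage.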

[2] = Selectivity index, ratio of GI50 for human THP1 cells to MIC90 for Mycobacterium bovis BCG ATCC 35743 dormant stage; format: toxicity, cell-based, THP-1; how it was run: as §1
[3] = Selectivity index, ratio of GI50 for human MCF7 cells to MIC90 for Mycobacterium bovis BCG ATCC 35743 dormant stage; format: toxicity, cell-based; how it was run: as §1
[4] = Selectivity index, ratio of GI50 for human HCT116 cells to MIC90 for Mycobacterium bovis BCG ATCC 35743 dormant stage; format: toxicity, cell-based, HCT-116; how it was run: as §1

## CO[C@H]1/C=C/O[C@@]2(C)Oc3c(C)c(O)c4c(O)c(c(/C=N/N5CCN(C)CC5)c(O)c4c3C2=O)NC(=O)/C(C)=C\C=C\[C@H](C)[C@H](O)[C@@H](C)[C@@H](O)[C@@H](C)[C@H](OC(C)=O)[C@@H]1C [RIFAMPIN]
[1]
  selectivity ratio: 133
[2]
  selectivity ratio: 123
[3]
  selectivity ratio: 123
[4]
  selectivity ratio: 123

Reference: ChEMBL document CHEMBL3872252, “New bithiazolyl hydrazones: Novel synthesis, characterization and antitubercular evaluation” (Bioorg Med Chem Lett, 2017)
